Screening data (PubChem BioAssay)
RAD54 branch = inhibitors of human RAD54 branch migration, primary screen, biochemical, fluorescence, single point | DNA repair and recombination protein RAD54-like (Homo sapiens), Q92698 | RAD54 Holliday junction branch migration, FAM/BHQ fluorescence | inhibition, % at 10.4 µM | 360,000 tested, 0.14% active | AID 602329, 2012;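 active = mean normalized replicate activity at least 40 and at least half of replicates scoring 40 or more; inconclusive = only one of the two criteria met; inactive = mean below 40 and under half of replicates reaching 40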;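 also: 0% = median of neutral control wells and 100% = median of positive control wells; inhibitors cause a drop in the FAM fluorescence signal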
SIRT5 block = SIRT5 desuccinylase inhibitors, primary screen, biochemical, fluorescence imaging, single point, set 5; Purified SirT5, succinyl-peptide AMC, trypsin-coupled fluorescence; inhibition, % at 15 µM; 330,000 tested, 1.1% active; AID 652115, 2013; in the data active = inhibition above about 15%; inconclusive = no clear call, values can overlap the other calls
AF4-AF9 inh = inhibitors of AF4 peptide binding to AF9, primary screen, biochemical, AlphaScreen, biotin-AF4 peptide, FLAG-AF9, single point | Protein AF-9 (Homo sapiens), P42568 | inhibition, % at 10 µM | 350,000 tested, 0.47% active | AID 651704, 2012;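 active = every replicate reaching a set inhibition limit, whatever the replicate mean, cut at about 25% in these data; inconclusive = mean inhibition reaches that limit but some replicates miss it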;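 also: 0% = plate neutral control median and 100% = total signal loss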
E-sel inducer = E-selectin induction in HUVECs, primary screen, imaging, HUVEC, immunofluorescence imaging, single point | P16581 | normalized: neutral wells 0, TNF-alpha wells 100 | activation, % at 7.58 µM | 260,000 tested, 0.37% active | AID 686992, 2013;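 active = mean E-selectin-positive cell signal at least 10% of the positive control, reached in at least 60% of replicates, without over 20% cell loss; inconclusive = no rule given, readout overlaps actives, possibly toxicity-flagged; inactive = the rest, including those meeting only one limit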
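Test system: HUVEC | Signal: Immunofluorescence imaging | Read-out: Percent E-selectin-positive cells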
UUG fidelity = modulators of start codon recognition fidelity in yeast; S. cerevisiae UUG-firefly luciferase reporter, luminescence/redox ratio; AID 602363; 350,000 tested, 0.13% active; activity score, % at 18.7 µM;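 active = replicate mean at a twofold rise or more, about +100% in these data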;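 also: firefly luciferase made from a UUG start codon reports start codon fidelity; reporter light over untreated wells divided by growth signal over untreated wells; some hits fall short of that in this replicate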
RAD52 inh = RAD52 DNA annealing inhibitors, primary screen, biochemical, FRET, single point, set 2; inhibition, % at 18.7 µM; recombinant RAD52 DNA annealing, FRET fluorescence; AID 651710, 2012; 360,000 tested, 0.46% active;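 active = every replicate showing at least 50% inhibition; inconclusive = mean inhibition at least 50% but not in every replicate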
* = called active by the depositor; ? = inconclusive; . = not tested or not shown. This is a sample that favours compounds with a hit; in the whole collection about 1.8% have one here.

Amino acid sequences for entries named in this document (tags omitted).
DNA repair and recombination protein RAD54-like (Homo sapiens), Q92698, UniProt Q92698, whole entry, looked up: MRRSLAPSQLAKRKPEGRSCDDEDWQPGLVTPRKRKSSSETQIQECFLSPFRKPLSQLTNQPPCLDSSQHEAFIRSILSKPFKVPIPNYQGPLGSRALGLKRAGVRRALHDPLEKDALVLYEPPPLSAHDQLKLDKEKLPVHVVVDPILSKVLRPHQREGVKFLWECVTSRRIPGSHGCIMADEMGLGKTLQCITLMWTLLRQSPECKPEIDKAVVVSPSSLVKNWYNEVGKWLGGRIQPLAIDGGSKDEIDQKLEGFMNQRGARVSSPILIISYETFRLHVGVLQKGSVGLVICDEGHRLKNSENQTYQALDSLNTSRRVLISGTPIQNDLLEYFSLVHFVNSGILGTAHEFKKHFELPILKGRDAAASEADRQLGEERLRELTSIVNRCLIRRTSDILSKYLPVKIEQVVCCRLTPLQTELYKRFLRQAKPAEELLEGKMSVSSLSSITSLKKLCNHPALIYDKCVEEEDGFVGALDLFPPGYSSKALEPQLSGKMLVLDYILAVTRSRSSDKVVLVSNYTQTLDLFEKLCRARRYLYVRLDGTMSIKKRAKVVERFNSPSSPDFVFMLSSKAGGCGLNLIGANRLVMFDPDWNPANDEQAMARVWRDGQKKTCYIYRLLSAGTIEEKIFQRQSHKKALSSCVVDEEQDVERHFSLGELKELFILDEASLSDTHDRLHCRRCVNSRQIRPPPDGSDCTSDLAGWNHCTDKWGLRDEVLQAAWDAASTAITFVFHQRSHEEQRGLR

nr | Structure | RAD54 branch | SIRT5 block | AF4-AF9 inh
1 | CN(C)Cc1cc2ccccc2c2c1COC2 | -7.2 | -3.7 | 31.9*
2 | CCOc1ccccc1N(CC(=O)NCCSc1ccccn1)S(=O)(=O)c1ccccc1 | -2.7 | 2.2 | 2.0
3 | COc1ccccc1N(CC(=O)NCCSc1ccccn1)S(=O)(=O)c1ccccc1 | -4.7 | 0.8 | 1.4
4 | CN1/C(=C/C(=O)c2cccs2)Sc2ccccc21 | 56.1* | . | .
5 | CCC(=O)Nc1nnc(SCc2ccc(F)cc2)s1 | 3.3 | . | .
6 | CCOC(=O)C(=O)Nc1nnc(SCc2ccc(F)cc2)s1 | -19.6 | 0.7 | -5.8
7 | CC1(C)CC(=O)C2=C(C1)c1c(ccc3ccccc13)NC2c1cc([N+](=O)[O-])cc([N+](=O)[O-])c1O (stereo not given) | . | 16.7* | 2.1
8 | N#Cc1cccc(-c2ccc3c(c2)[C@H]2[C@H](CCN2S(=O)(=O)c2ccccc2F)[C@@H](CO)N3)c1 | 2.5 | 5.4 | 3.8

nr | E-sel inducer | UUG fidelity | RAD52 inh
1 | 5.0 | 57.8 | 3.8
2 | 0.5 | 3.7 | -10.9
3 | 37.1* | -5.5 | -7.9
4 | . | -16.6 | .
5 | . | -8.9 | .
6 | 38.8* | -5.9 | -5.5
7 | . | . | 7.9
8 | -0.5 | -14.9 | 16.2

Next section:
nr | Structure | RAD54 branch | SIRT5 block | AF4-AF9 inh
9 | O=C1COc2cc(ccc2[N+](=O)[O-])Oc2ccc(cc2Cl)C(=O)CCCCO1 | 7.1 | 17.6* | -0.6
10 | O=[N+]([O-])c1ccc(C2=Nc3cc(Cl)ccc3OC2)cc1 | . | 6.8 | 1.4
11 | CCCN(C)C[C@H]1OCCCC[C@H](C)Oc2ccc(NC(=O)Nc3ccc(F)cc3)cc2C(=O)N([C@@H](C)CO)C[C@H]1C | . | . | .
12 | C[C@H](CO)N1C[C@H](C)[C@@H](CN(C)CC2CC2)OCCCC[C@H](C)Oc2ccc(NC(=O)Nc3ccc4c(c3)OCO4)cc2C1=O | 8.3 | 1.4 | 28.9*
13 | CCCN(C)C[C@@H]1OCCCC[C@H](C)Oc2ccc(NC(=O)Nc3ccc(F)cc3)cc2C(=O)N([C@H](C)CO)C[C@@H]1C | 3.9 | -2.1 | 5.7
14 | CCCN(C)C[C@@H]1OCCCC[C@@H](C)Oc2ccc(NC(=O)Nc3ccc4c(c3)OCO4)cc2C(=O)N([C@H](C)CO)C[C@H]1C | -0.7 | -7.5 | 25.3*
15 | C[C@H](CO)N1C[C@H](C)[C@H](CN(C)CC2CC2)OCCCC[C@H](C)Oc2ccc(NC(=O)Nc3ccc4c(c3)OCO4)cc2C1=O | 17.1 | 0.9 | 35.9*
16 | C[C@@H]1CCCCO[C@@H](CN(C)CC2CC2)[C@H](C)CN([C@H](C)CO)C(=O)c2cc(NC(=O)Nc3ccc4c(c3)OCO4)ccc2O1 | 10.5 | 3.8 | ?

nr | E-sel inducer | UUG fidelity | RAD52 inh
9 | 0.0 | -15.2 | -3.9
10 | 0.6 | . | 4.1
11 | 0.0 | . | .
12 | 0.0 | . | 47.6
13 | 0.1 | 8.0 | 53.0*
14 | 0.0 | 38.8 | 31.1
15 | . | . | 55.1*
16 | 0.8 | . | 33.1

One compound at a time, from the list above.
CCOc1ccccc1N(CC(=O)NCCSc1ccccn1)S(=O)(=O)c1ccccc1 is listed with RAD54 branch = -2.7; SIRT5 block = 2.2; AF4-AF9 inh = 2.0; E-sel inducer = 0.5; UUG fidelity = 3.7; RAD52 inh = -10.9
CCC(=O)Nc1nnc(SCc2ccc(F)cc2)s1 is listed with RAD54 branch = 3.3; SIRT5 block = .; AF4-AF9 inh = .; E-sel inducer = .; UUG fidelity = -8.9; RAD52 inh = .

Further compounds follow.
nr | Structure | RAD54 branch | SIRT5 block | AF4-AF9 inh
17 | C[C@H]1CCCCO[C@@H](CN(C)C)[C@@H](C)CN([C@@H](C)CO)C(=O)c2cc(NC(=O)Nc3ccc4c(c3)OCO4)ccc2O1 | . | . | .
18 | C[C@@H]1CN([C@@H](C)CO)C(=O)c2cc(C3=CCCCC3)cnc2O[C@@H]1CN(C)C(=O)Nc1ccc(F)cc1 | 3.7 | 0.6 | 1.4
19 | O=C(C[C@H]1CC[C@H]2[C@@H](COC[C@@H](O)CN2S(=O)(=O)c2ccccc2F)O1)NCc1ccccc1Cl | 0.8 | -1.2 | -1.0
20 | Cc1ccccc1-c1ccc(C2[C@@H]3CN(C(=O)Cc4ccncc4)C[C@H]2N3)cc1 (stereo not given in full) | . | . | .
21 | Cc1noc(C)c1S(=O)(=O)Nc1ccc2c(c1)C(=O)N([C@H](C)CO)C[C@@H](C)[C@H](CN(C)C(=O)Nc1cccc3ccccc13)O2 | 9.6 | 0.4 | -2.2
22 | C[C@@H]1CCCCO[C@H](CN(C)CC2CC2)[C@H](C)CN([C@@H](C)CO)C(=O)c2cc(NC(=O)c3ccccc3)ccc2O1 | 12.0 | 1.4 | 6.1
23 | COc1cccc(C(=O)NNC(=O)c2cccnc2)c1 | -9.1 | 13.9 | -5.3

nr | E-sel inducer | UUG fidelity | RAD52 inh
17 | -0.1 | . | .
18 | 0.3 | 11.9 | 3.4
19 | 0.1 | 28.6 | -7.3
20 | 0.0 | . | .
21 | -1.0 | -11.1 | -4.2
22 | -0.2 | . | 51.6*
23 | 3.7 | -30.5 | 9.6
